## Binding of CDR-mutated scFvs to a peptide of the spike HR2 region

Reference: Engelhart et al. 2022, doi:10.1038/s41597-022-01779-4. File: FLAb, binding data.

Target: peptide PDVDLGDISGINAS, taken from heptad repeat 2 (HR2) of SARS-CoV-2 spike.

Ab-14 is the parent antibody, in scFv form: VH, then a 15-residue (Gly4Ser)3 linker, then VL. The heavy chain is unchanged in all variants.
VH: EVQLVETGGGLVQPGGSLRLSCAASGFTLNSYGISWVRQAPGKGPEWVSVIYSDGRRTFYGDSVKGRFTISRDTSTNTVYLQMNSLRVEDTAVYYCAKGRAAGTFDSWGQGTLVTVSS
VL: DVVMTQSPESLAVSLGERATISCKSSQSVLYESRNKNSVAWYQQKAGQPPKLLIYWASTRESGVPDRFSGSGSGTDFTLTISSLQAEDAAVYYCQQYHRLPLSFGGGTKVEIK

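Phage display of a naive human antibody library on the peptide gave the parent. The library (AAYL50) carries one to three amino acid substitutions per variant, with no insertions or deletions. The assay is AlphaSeq: two haploid yeast populations carry antibody and antigen on their surface. Pairs that bind mate more often; barcode pairs of the diploids are counted by sequencing. Read counts were normalised to the haploid input and turned into Kd by a linear fit to BCL2-family pairs of known affinity, for each replicate. The assay was run in three technical replicates.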

The parent's light chain CDRs are KSSQSVLYESRNKNSVA, WASTRES, QQYHRLPLS; each variant's own CDRs replace them letter for letter. Scale: log10 of Kd in nM, estimated from mating counts; low values are strong binders. "n.d." marks a missing value. The strain was present, yet no cells mated with the target were sequenced in that replicate, which points to weak or no binding. Parent in this assay: reference entry 0.65, copy in this library 1.68. As a blank, each scFv also met three strains without target: over library AAYL50, 18% of these pairings were detected, typically at 4.19 and seldom below 2.99. The control count says in how many pairings with the empty strains this scFv gave a signal, with their mean in brackets.

| # | CDR-L1 | CDR-L2 | CDR-L3 | log10 Kd (nM) by replicate | signal with controls |
|---|---|---|---|---|---|
| 1 | KSSLSVLYESENKNSVA | WASTREH | QQYHRLPLS | 0.07 / 0.37 / 0.09 | 2/9 (4.71) |
| 2 | KSPQSVLYESRNKNSVA | WASSREF | QQYHRLPLS | 2.57 / 2.57 / 2.21 | 1/9 (4.25) |
| 3 | KSSQSVLYEGINKNSVA | WASTRES | QQYHRLQLS | 2.77 / n.d. / n.d. | 0/9 |
| 4 | KGSQSVLYESRNKNSKA | WASTRED | QQYHRLPLS | n.d. / n.d. / n.d. | 0/9 |
| 5 | KSSQSVLYESRNKNSVA | WASTRES | QQNHRIPLS | 2.63 / 2.14 / 2.48 | 1/9 (3.32) |
| 6 | KSSFSVTYESRNKNSVA | WASTRES | QQYHRLPWS | 4.97 / 3.35 / 3.54 | 2/9 (3.66) |
| 7 | KSSISVLYESRNKNQVA | WASTRNS | QQYHRLPLS | 3.47 / 2.73 / 3.31 | 0/9 |
| 8 | KSSNSVYYESRNKNSVA | WASTRES | QQYHRAPLS | n.d. / n.d. / n.d. | 2/9 (3.19) |
| 9 | DSSQSVVYESNNKNSVA | WASTRES | QQYHRLPLS | 1.04 / 1.31 / 1.43 | 2/9 (4.36) |
| 10 | KSSQSVLYESCNANSVA | WASTRES | QQYHRLELS | 5.76 / n.d. / 3.37 | 1/9 (4.12) |
| 11 | KSSQSVLYESRPYNSVA | WAVTRES | QQYHRLPLS | 3.39 / 3.11 / 3.42 | 3/9 (4.26) |
| 12 | TSSQSVLYESRNKNPVA | WASTRES | QEYHRLPLS | n.d. / n.d. / n.d. | 2/9 (4.38) |
| 13 | KSHQSVLYESRNCNSVA | WASTRES | QQYYRLPLS | 1.38 / 1.23 / 1.28 | 1/9 (5.60) |
| 14 | KSSQSVLYESHNKNSVR | WASTREG | QQYHRLPLS | 3.99 / n.d. / n.d. | 2/9 (4.20) |
| 15 | KSMQSVLYESRNKNSVA | WASTRES | QQSHRLPLS | 1.18 / 0.78 / 0.51 | 1/9 (2.14) |
| 16 | KSSQSVLYESRPKNSVA | WASTAES | QQYHRLPPS | n.d. / n.d. / n.d. | 0/9 |
| 17 | KSSQLVLHESRNKNSVA | WASTRES | QQYHRLPLS | 1.41 / 2.07 / 3.27 | 0/9 |
| 18 | KSSRSVLYESRNKNSHA | WASTRES | QIYHRLPLS | n.d. / n.d. / n.d. | 2/9 (3.61) |
| 19 | KSSQSVLYESRNKNIVA | WVSTRES | VQYHRLPLS | n.d. / n.d. / n.d. | 1/9 (2.46) |
| 20 | KSSQSVLYESRNKQSHT | WASTRES | QQYHRLPLS | n.d. / 3.26 / n.d. | 3/9 (3.91) |
| 21 | KSSQSVLYESRNKNSVA | WASTPES | QQHHRLPLH | n.d. / n.d. / n.d. | 0/9 |
| 22 | KSSQSVLYESRNKNSVA | WASTREI | CQYHRLVLS | 1.54 / 1.53 / 1.51 | 1/9 (3.63) |
| 23 | KSSQSVLYESRQKNSVA | WASTRES | QQDHRLPLG | n.d. / n.d. / n.d. | 1/9 (3.23) |
| 24 | KSSQSVLYESRNRNSVA | WASTRES | QQYVRLPLA | 1.48 / 1.40 / 1.39 | 2/9 (4.73) |
| 25 | KLSQSVLYESRNKNPIA | WASTRES | QQYHRLPLS | 0.36 / 0.46 / 0.37 | 1/9 (4.82) |
| 26 | KSSQSVLSESRNKNSVA | QASTRES | QYYHRLPLS | 2.23 / 2.01 / 2.39 | 0/9 |
| 27 | KSSQSVLYHSRNPNSVA | WASTRNS | QQYHRLPLS | 1.15 / 1.39 / 1.38 | 3/9 (4.37) |
| 28 | KSSQSVLYESRNKNSVA | WASTRVS | QQRHRLPLS | 1.10 / 1.38 / 1.19 | 1/9 (3.56) |
| 29 | KSSQSVLYESRNKFSVA | WASTREF | QQYHRLPCS | 4.68 / 5.24 / n.d. | 3/9 (3.94) |
| 30 | KSSQSVLYESRNKNSEA | WASTEES | QPYHRLPLS | n.d. / 4.41 / n.d. | 0/9 |
| 31 | KSSQSVLYESRNKNSVS | WASTSES | QEYHRLPLS | n.d. / n.d. / n.d. | 1/9 (3.54) |
| 32 | KSSSSVLYESRNKNSVA | WASTRKP | QQYHRLPLS | 0.84 / 0.96 / 0.90 | 2/9 (3.34) |
| 33 | KSSQSGLYESRNKNSVA | WANTRCS | QQYHRLPLS | 0.32 / 0.56 / 0.50 | 2/9 (3.78) |
| 34 | KSSQSVRYEIRNKNSVA | WASTHES | QQYHRLPLS | 3.39 / 2.93 / 3.56 | 5/9 (4.38) |
| 35 | KSSQSVLYESNNDNSVA | WASTTES | QQYHRLPLS | 2.99 / 2.91 / 3.21 | 6/9 (4.40) |
| 36 | KSSQSVGYESRNKNSVA | WAGTRES | QQYHRHPLS | n.d. / 4.63 / n.d. | 3/9 (4.48) |
| 37 | KSSQSVLYESRNKNSVA | WRSRRES | QQYHALPLS | n.d. / 3.26 / n.d. | 0/9 |
| 38 | RSSQSVLYESRNKNSVA | WWSTRES | QFYHRLPLS | 3.21 / 5.19 / n.d. | 1/9 (4.89) |
| 39 | KSDQQVLYESRNKNSVA | WASTRES | QRYHRLPLS | n.d. / n.d. / 3.70 | 1/9 (4.06) |
| 40 | KSSQSVLYESRNGNSVA | WASTRES | QQYIRWPLS | 1.62 / 1.62 / 1.96 | 1/9 (4.46) |
| 41 | KSSQSVLYESRNKNSVT | WAQTRES | QQYHRLPLW | n.d. / 5.62 / n.d. | 3/9 (4.44) |
| 42 | KSSQSVLYERRNKGSVA | WASTPES | QQYHRLPLS | n.d. / n.d. / n.d. | 1/9 (3.85) |
| 43 | KSSQSFLYESRNKNSVA | WASTRES | QQYHRLMLS | n.d. / n.d. / 3.08 | 1/9 (2.81) |
| 44 | KSSQSVLYVSRNKNSVA | AASTKES | QQYHRLPLS | 0.15 / 0.48 / 0.31 | 0/9 |
| 45 | KSSQSPLYESRNKNSPA | WASMRES | QQYHRLPLS | 2.63 / 3.24 / 2.49 | 2/9 (4.05) |
| 46 | KSSQSVLYESRNKNSVA | WASTRES | KQNHRLPIS | n.d. / 4.48 / 4.60 | 2/9 (5.29) |
| 47 | KKSQSVLYESANPNSVA | WASTRES | QQYHRLPLS | n.d. / n.d. / 4.08 | 1/9 (4.63) |
| 48 | KSSQSVDYESRNKNSVA | WSSTRES | QQVHRLPLS | n.d. / n.d. / n.d. | 2/9 (4.21) |
| 49 | KSSQSVLYEIRNKNSVA | WASTRES | QQFHRLPLS | n.d. / n.d. / n.d. | 0/9 |
| 50 | KSSQSVLYESGNKNSVA | WASTRES | CAYHRLPLS | n.d. / n.d. / 3.32 | 0/9 |

Extract of 3 entries:

CDR-L1	CDR-L2	CDR-L3	log10 Kd (nM) by replicate	signal with controls
KSSQSVLYEIRNKNSVA	WASTRES	QQFHRLPLS	n.d. / n.d. / n.d.	0/9
KSSQSVLYESRNGNSVA	WASTRES	QQYIRWPLS	1.62 / 1.62 / 1.96	1/9 (4.46)
KGSQSVLYESRNKNSKA	WASTRED	QQYHRLPLS	n.d. / n.d. / n.d.	0/9